Data taken from patent US7217730B2, “Method for the use of pyranoindole derivatives to treat infection with Hepatitis C virus” (Wyeth, priority 2002, dated 2007).

System: Hepatitis C virus replicon (1b) in Clone A cells (Huh-7)
Assay: HCV replicon ELISA (NS5a) in Clone A cells
Assay type: cell-based
Conditions: reference compound, 3 days
Description: The ability of the compounds of the present invention to inhibit Hepatitis C virus replicon constitutively expressed in a human liver cell line was established by the following experimental procedure: • Clone A cells (licensed from Apath, LLC) are derived from Huh-7 cells (human hepatoma cell line) and constitutively express the HCV replication proteins with concomitant amplification the HCV replicon (1b) genome. Cells are maintained and passaged in DMEM/10% FCS/1 mg/ml G418 (Geneticin from Gibco #11811-023; other media components as described below in “elisa media”). Care should be taken to maintain cell monolayers at a subconfluent state by 1:3 or 1:4 passages every 3–4 days. The replicon is extremely sensitive to the cellular metabolism/proliferation state and replicon copy number will rapidly decline in confluent monolayers (resting cells). Under ideal conditions each cell has, on average, 1000 copies of the HCV replicon genome.
Dulbecco's Modified Eagle Media (DMEM) (Gibco #12430-047)
2% Fetal Calf Serum (FCS) (HyClone #SH30070.03)
1× Non-essential amino acids (NEAA) (Gibco #11140-050)
Glutaraldehyde (Fisher #02957-4)
Superblock in Phosphate Buffered Saline (PBS) (Pierce #37515) […]
10 μl of compounds (in DMSO) are added to column 3 of the mother plate. […] Mother plates are set aside until ready for serial dilution to be performed. […]
Read plates with optical density (O.D.) 450 filter. […]

Interferon-a2: reference compound of the HCV replicon ELISA assay
IC50: 4–30 U/ml
